Sequences of proteins named here, by UniProt entry; tags and fusion partners are left off. Residues count along the entry.
UniProt O42275, 24-633 limits assumed: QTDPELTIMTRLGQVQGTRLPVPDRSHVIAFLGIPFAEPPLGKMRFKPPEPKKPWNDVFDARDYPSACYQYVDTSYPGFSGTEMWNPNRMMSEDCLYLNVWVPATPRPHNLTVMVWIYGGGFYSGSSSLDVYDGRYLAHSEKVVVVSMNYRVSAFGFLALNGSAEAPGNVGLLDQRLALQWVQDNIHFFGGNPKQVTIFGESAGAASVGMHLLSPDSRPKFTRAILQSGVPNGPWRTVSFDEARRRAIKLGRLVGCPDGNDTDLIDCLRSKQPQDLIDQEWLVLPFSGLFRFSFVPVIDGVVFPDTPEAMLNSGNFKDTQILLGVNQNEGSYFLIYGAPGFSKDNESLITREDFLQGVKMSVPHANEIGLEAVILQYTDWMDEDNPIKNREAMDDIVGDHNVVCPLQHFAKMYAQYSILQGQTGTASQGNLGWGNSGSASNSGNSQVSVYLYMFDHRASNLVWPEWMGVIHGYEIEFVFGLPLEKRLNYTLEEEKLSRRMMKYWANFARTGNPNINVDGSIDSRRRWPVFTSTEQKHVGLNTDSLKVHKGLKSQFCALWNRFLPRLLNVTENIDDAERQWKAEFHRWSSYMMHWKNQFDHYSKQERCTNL

According to patent US20110284394A1, “Portable Electrochemical Multiphase Microreactor for Sensing Trace Chemical Vapors” (published 2011):

Columns and labels:
[1] = target: T1, electric eel AChE (Electrophorus electricus, UniProt O42275); test: microchannel sensor AChE inhibition by vapor, amperometric thiocholine oxidation current; conditions: for AChE microsensor response to simulants and interferants: vapor exposure, response means AChE inhibition
[2] = target: T1, electric eel AChE; test: beaker-scale (macro-scale) AChE inhibition by malathion, thiocholine oxidation current by cyclic voltammetry
[3] = about 52 ppb malathion in argon, 10 mL/min, 1.69 mM acetylthiocholine, pH 7.4, 0.013 U AChE

Row | SMILES | percent inhibition, AChE in solution (free) [1, 3] | percent inhibition, immobilized AChE [1, 3] [%] | AChE microsensor response to simulants and interferants [1] | percent inhibition of thiocholine oxidation ([2]; about 46 μM malathion, potential about 700 mV, 1.25 mM acetylthiocholine over immobilized AChE (18 U/mL), phosphate buffer pH 7.4) [%] | percent inhibition of enzyme ([2]; after exposure to about 23 mM malathion, beaker cell) [%]
1 | CCOC(=O)CC(SP(=S)(OC)OC)C(=O)OCC (stereo not shown) | about 0.6% | 33 | shows a response | 100 | 100
2 | Cc1ccccc1 |  |  | did not produce a response |  | 
3 | CCCCCCCCCCCC |  |  | did not produce a response |  | 
